Values quoted from earlier work as cited in patent US12006290B2, “Crystalline norpsilocin compounds” (CAAMTECH, INC., priority 2020, dated 2024).

The chains behind the UniProt entries cited, without tags or fusion partners.
UniProt P28223, whole entry: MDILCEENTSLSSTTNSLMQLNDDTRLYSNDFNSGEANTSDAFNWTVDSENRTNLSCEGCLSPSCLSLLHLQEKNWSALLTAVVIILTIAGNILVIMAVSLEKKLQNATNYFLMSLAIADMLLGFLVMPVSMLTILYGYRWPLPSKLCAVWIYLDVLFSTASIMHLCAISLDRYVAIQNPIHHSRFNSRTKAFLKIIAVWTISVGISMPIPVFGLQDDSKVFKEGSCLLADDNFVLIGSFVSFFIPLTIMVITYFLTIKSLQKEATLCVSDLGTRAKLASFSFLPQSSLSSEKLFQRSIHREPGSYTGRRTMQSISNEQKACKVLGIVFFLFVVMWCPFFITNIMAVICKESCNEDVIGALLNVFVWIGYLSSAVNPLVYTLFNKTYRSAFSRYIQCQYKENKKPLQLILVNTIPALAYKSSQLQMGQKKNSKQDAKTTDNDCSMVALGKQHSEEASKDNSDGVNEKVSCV

Target: human serotonin 2a receptor (Homo sapiens, UniProt P28223)
Settings: synthetic norpsilocin compared to psilocin

**Q.** Which “agonist potency at the human serotonin 2a receptor” value does the source give for `CNCCc1c[nH]c2cccc(O)c12` [norpsilocin, 4-hydroxy-N-methyltryptamine] here?
**A.** as potent if not more compared to psilocin
